Laboratory results: ChEMBL document CHEMBL3259633 (J Med Chem, 2014)

How the values were obtained:
Mus musculus [1] = organism: Mus musculus; test: animal or person; details: Swiss, Abdomen, sc, 5 min
Mus musculus [2] = organism: Mus musculus; test: animal or person; details: Swiss, sc

In the case of `CO[C@@]12CC[C@@]3(C[C@@H]1[C@](C)(O)C(C)(C)C)[C@H]1Cc4ccc(O)c5c4[C@@]3(CCN1CC1CC1)[C@H]2O5` [BUPRENORPHINE], the ED50 (Mus musculus [1]) is reported as 0.16 mg/kg and the ED50 (Mus musculus [2]) is reported as 0.07 mg/kg.
